Common to all, as to test: FP
Experiment [1] addresses iCAL36 P-4 Ac-K.
The target of experiment [2] is iCAL36. The following applies: cited from earlier work.
Experiment [3] addresses iCAL36 P-3 Ac-K.
The target in experiment [4] is iCAL36 P-5 Ac-K.
Experiment [5] addresses iCAL36 P-1 Tfa-K.
Experiment [6] has as its target iCAL36 P-1 FB-K.
Experiment [7] concerns the target iCAL36 P-1 BB-K.
In experiment [8] the target is iCAL36 P-1 Ac-K.

One may read the Ki as a dissociation constant, usually derived from enzyme kinetics or from competition with a known ligand. As for “CAL (CFTR-associated ligand) PDZ (from UniProt Q9HD26)”, the Ki is 32.3 µM in experiment [1]; 22.6 µM in experiment [2]; 180 µM in experiment [3]; 550 µM in experiment [4]; 14.1 µM in experiment [5]; 11.4 µM in experiment [6]. Besides, the values for the Ki in experiment [7] and in experiment [8] were 11.1 µM and 14.9 µM, respectively.

The values above are taken from publication PMC4138078, “Chemically Modified Peptide Scaffolds Target the CFTR-Associated Ligand PDZ Domain” (PLoS ONE, 2014).
